Measurements taken from article PMC9021956 (2022).

Columns and labels:
HLA-A0206 = HLA-A0206 (Homo sapiens, UniProt P04439, D140Y/D185E/D98H/E176V/E277Q/F33Y/G131W/G231S/I119V/I121R/I166T/I218V/L300P/L318F/N151K/N90K/P208A/P217A/Q86G/Q94H/R138H/R169H/T345S); assay: cell-based
HLA-A3303 = HLA-A3303 (Homo sapiens, UniProt P04439, A270S/D185E/E176V/E277Q/E87N/F33T/G231S/H175R/I121M/I218V/I322F/K168Q/L300P/L318F/M331R/P217A/Q86R/Q94H/R138Q/T323A/T345S/T97I/V358M); assay: cell-based
HLA-A1102 = HLA-A1102 (Homo sapiens, UniProt P04439, A114D/D185E/E176A/E43K/F33Y/L180Q/S129P/T187R); assay: Peptide competitive binding assay, transfected HMy2.CIR cells, reference ATFQFK(FITC)VER
HLA-A0201 = HLA-A0201 (Homo sapiens, UniProt P04439, D140Y/D185E/D98H/E176V/E277Q/G131W/G231S/I119V/I121R/I166T/I218V/L300P/L318F/N151K/N90K/P208A/P217A/Q86G/Q94H/R138H/R169H/T345S); assay: cell-based
HLA-A1101 = HLA-A1101 (Homo sapiens, UniProt P04439, A114D/D185E/E176A/F33Y/L180Q/S129P/T187R); assay: cell-based
HLA-A0207 = HLA-A0207 (Homo sapiens, UniProt P04439, D140Y/D185E/D98H/E176V/E277Q/G131W/G231S/I119V/I121R/I166T/I218V/L300P/L318F/N151K/N90K/P208A/P217A/Q86G/Q94H/R138H/R169H/T345S/Y123C); assay: cell-based
HLA-A0301 = HLA-A0301 (Homo sapiens, UniProt P04439); assay: Peptide competitive binding assay, transfected HMy2.CIR cells, reference ATFQFK(FITC)VER
HLA-A0101 = HLA-A0101 (Homo sapiens, UniProt P04439, A114D/A174V/A182V/D101N/D185E/E176A/E190D/L180R/Q94H/R68K/S129P/T187R/V100A/V91M/W191G); assay: Peptide competitive binding assay, transfected HMy2.CIR cells, reference YLEPAK(FITC)AKY
HLA-A2402 = HLA-A2402 (Homo sapiens, UniProt P04439, D101N/D140Y/D185E/E176V/E190D/F33S/G103R/G107R/I119L/I121M/I306V/K335N/L105A/L180Q/L300P/N151K/N90K/Q86E/Q94H/R106L/R138H/R89G/T104I/T345S/V100E/W191G/Y123F); assay: cell-based
HLA-A3101 = HLA-A3101 (Homo sapiens, UniProt P04439, A270S/D185E/E176V/E277Q/F33T/G231S/G80R/H175R/I121M/I218V/I322F/K168Q/L300P/L318F/M331R/P217A/Q94H/R138Q/T323A/T345S/T97I/V358M); assay: Peptide competitive binding assay, transfected HMy2.CIR cells, reference ATFQFK(FITC)VER
HLA-A0203 = HLA-A0203 (Homo sapiens, UniProt P04439, A173T/D140Y/D185E/D98H/E277Q/G131W/G231S/I119V/I121R/I166T/I218V/L180W/L300P/L318F/N151K/N90K/P208A/P217A/Q86G/Q94H/R138H/R169H/T345S); assay: cell-based

SMILES | IC50 (HLA-A1102) | IC50 (HLA-A0201) | IC50 (HLA-A1101) | IC50 (HLA-A0207) | IC50 (HLA-A2402) | also measured
CC[C@H](C)[C@H](NC(=O)[C@H](Cc1c[nH]c2ccccc12)NC(=O)[C@@H](NC(=O)CNC(=O)[C@H](Cc1ccccc1)NC(=O)[C@H](CO)NC(=O)[C@@H](NC(=O)[C@@H](N)CC(C)C)C(C)C)C(C)C)C(=O)N[C@@H](CCCNC(=N)N)C(=O)O [Epitope P4] | > 15 µM | > 15 µM | – | – | – | IC50 (HLA-A0206): > 15 µM; IC50 (HLA-A3303): > 15 µM
CSCC[C@H](NC(=O)[C@@H](N)CCSC)C(=O)N[C@@H](Cc1c[nH]c2ccccc12)C(=O)N[C@@H](Cc1ccc(O)cc1)C(=O)N[C@@H](Cc1c[nH]c2ccccc12)C(=O)NCC(=O)N1CCC[C@H]1C(=O)N[C@@H](CO)C(=O)N[C@@H](CC(C)C)C(=O)N[C@@H](Cc1ccc(O)cc1)C(=O)O [Epitope P108] | > 15 µM | – | > 15 µM | > 15 µM | > 15 µM | IC50 (HLA-A0301): > 15 µM; IC50 (HLA-A0101): > 15 µM
CC[C@H](C)[C@H](NC(=O)[C@H](CO)NC(=O)[C@H](CO)NC(=O)[C@@H](NC(=O)[C@@H]1CCCN1C(=O)[C@@H](N)CO)[C@@H](C)CC)C(=O)N[C@@H](Cc1ccccc1)C(=O)N[C@@H](CO)C(=O)N[C@@H](CCCNC(=N)N)C(=O)O [Epitope P38] | – | > 15 µM | > 15 µM | – | – | IC50 (HLA-A3101): > 15 µM
CSCC[C@H](NC(=O)CNC(=O)[C@H](CCC(N)=O)NC(=O)[C@H](Cc1ccc(O)cc1)NC(=O)[C@H](CC(=O)O)NC(=O)[C@H](CC(C)C)NC(=O)[C@@H](N)CC(C)C)C(=O)N[C@@H](CC(C)C)C(=O)N1CCC[C@H]1C(=O)N[C@H](C(=O)O)C(C)C [Epitope P95] | – | – | – | – | > 15 µM | –
CC[C@H](C)[C@H](NC(=O)[C@H](CO)NC(=O)[C@@H]1CCCN1C(=O)[C@H](Cc1ccccc1)NC(=O)[C@H](Cc1ccccc1)NC(=O)[C@H](CC(=O)O)NC(=O)[C@H](CO)NC(=O)[C@@H]1CCCN1C(=O)[C@H](CC(C)C)NC(=O)[C@@H](N)Cc1ccccc1)C(=O)O [Epitope P31] | – | < 5 µM | > 15 µM | > 15 µM | < 5 µM | IC50 (HLA-A0203): < 5 µM
